Antibody variant affinities, Ab-91 heavy chain, assay 2

Antigen: PDVDLGDISGINAS, a 14-residue peptide of the SARS-CoV-2 spike HR2 region.

Each scFv is VL, a 15-residue (Gly4Ser)3 linker, VH, as in the parent Ab-91, and differs from it in the CDRs of the heavy chain only.
VL: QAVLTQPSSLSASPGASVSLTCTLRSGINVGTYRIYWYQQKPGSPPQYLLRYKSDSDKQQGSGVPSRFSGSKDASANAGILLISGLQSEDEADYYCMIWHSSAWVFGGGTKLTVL
VH: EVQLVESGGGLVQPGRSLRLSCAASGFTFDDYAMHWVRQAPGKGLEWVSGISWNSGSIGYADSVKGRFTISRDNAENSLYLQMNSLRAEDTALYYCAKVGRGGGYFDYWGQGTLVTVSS

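The library (AAYL51) carries one to three amino acid substitutions per variant, with no insertions or deletions. The assay is AlphaSeq: two haploid yeast populations carry antibody and antigen on their surface. Mating (16 h, 30 °C) was followed by selection of diploids and sequencing of their barcodes. The ratio of observed to expected reads was calibrated, replicate by replicate, on BCL2-family standards whose Kd was known from biolayer interferometry. The assay was run in three technical replicates.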

Positions count from residue 1 of the parent VH; M34I puts I in place of M.
Affinities are written as log10 Kd with Kd in nM; a lower number is a better binder.
"ND" means that the variant was in the library but no mating with the target was seen in that replicate; the authors take this as a sign of poor binding, and no number exists.

{"changes": "M34I/N54V/S57Y", "log10 Kd (nM) by replicate": "ND ND ND", "signal with controls": "1/9 (3.89)"}
{"changes": "T28E/H35G/S63C", "log10 Kd (nM) by replicate": "ND 4.99 ND", "signal with controls": "3/9 (4.32)"}
{"changes": "A33V/G50C/D62E", "log10 Kd (nM) by replicate": "ND ND ND", "signal with controls": "1/9 (3.67)"}
{"changes": "M34G/G102P/D107F", "log10 Kd (nM) by replicate": "ND ND ND", "signal with controls": "0/9"}
{"changes": "Y32E/G59D/D107L", "log10 Kd (nM) by replicate": "ND ND 3.51", "signal with controls": "0/9"}
{"changes": "S57T/A61I/Y108R", "log10 Kd (nM) by replicate": "4.81 5.78 6.05", "signal with controls": "7/9 (4.90)"}
{"changes": "F29V/D30C/V99E", "log10 Kd (nM) by replicate": "4.51 5.24 5.69", "signal with controls": "4/9 (4.71)"}
{"changes": "S57G/G100L/G103A", "log10 Kd (nM) by replicate": "ND ND ND", "signal with controls": "0/9"}
{"changes": "I58G/K65S/D107K", "log10 Kd (nM) by replicate": "6.11 ND 5.38", "signal with controls": "2/9 (4.77)"}
{"changes": "G50D/D107R", "log10 Kd (nM) by replicate": "ND ND ND", "signal with controls": "2/9 (3.82)"}
{"changes": "W53S/S57V/A61D", "log10 Kd (nM) by replicate": "3.63 3.69 3.68", "signal with controls": "2/9 (5.21)"}
{"changes": "F27E/W53K/V99H", "log10 Kd (nM) by replicate": "5.96 ND ND", "signal with controls": "6/9 (4.83)"}
{"changes": "S57W/G103V/D107S", "log10 Kd (nM) by replicate": "5.09 6.79 3.99", "signal with controls": "6/9 (5.07)"}
{"changes": "D31R/H35G/G104I", "log10 Kd (nM) by replicate": "ND ND ND", "signal with controls": "0/9"}
{"changes": "S57P/G100K/G103D", "log10 Kd (nM) by replicate": "ND ND ND", "signal with controls": "3/9 (3.20)"}
{"changes": "W53Q/V99A/D107N", "log10 Kd (nM) by replicate": "2.66 ND ND", "signal with controls": "1/9 (4.40)"}
{"changes": "T28E/A33I/S55C", "log10 Kd (nM) by replicate": "ND ND ND", "signal with controls": "6/9 (4.40)"}
{"changes": "N54S/S55P", "log10 Kd (nM) by replicate": "3.46 4.90 3.95", "signal with controls": "2/9 (3.43)"}
{"changes": "G26R/I58R/G102M", "log10 Kd (nM) by replicate": "5.12 ND ND", "signal with controls": "6/9 (4.93)"}
{"changes": "S57R", "log10 Kd (nM) by replicate": "ND ND ND", "signal with controls": "2/9 (4.32)"}
{"changes": "T28M/D30T/F106P", "log10 Kd (nM) by replicate": "ND ND ND", "signal with controls": "0/9"}
{"changes": "S52K/G56C/F106V", "log10 Kd (nM) by replicate": "ND ND ND", "signal with controls": "0/9"}
{"changes": "G56Q/G104V/Y108S", "log10 Kd (nM) by replicate": "ND ND ND", "signal with controls": "0/9"}
{"changes": "M34P/H35T/S63K", "log10 Kd (nM) by replicate": "ND ND ND", "signal with controls": "0/9"}
{"changes": "F27R/F29L/I58M", "log10 Kd (nM) by replicate": "ND ND ND", "signal with controls": "1/9 (4.21)"}

The first 2 entries again:

{"changes": "M34I/N54V/S57Y", "log10 Kd (nM) by replicate": "ND ND ND", "signal with controls": "1/9 (3.89)"}
{"changes": "T28E/H35G/S63C", "log10 Kd (nM) by replicate": "ND 4.99 ND", "signal with controls": "3/9 (4.32)"}

As a blank, each scFv also met three strains without target: over library AAYL51, 21% of these pairings were detected, typically at 4.54 and seldom below 3.26. For each scFv, signals with the empty controls are counted beside the result, with their mean in brackets.
Parent in this assay: reference entry 1.86, copy in this library 0.88.

Values reported by Engelhart et al. 2022, doi:10.1038/s41597-022-01779-4 (FLAb copy).